{
  "source": "patent US20240269321A1",
  "about": "“PREPARATION AND STORAGE OF LIPOSOMAL RNA FORMULATIONS SUITABLE FOR THERAPY” (BioNTech SE, priority 2020, published 2024)",
  "key": {"[1]": {"experiment": "RNA integrity in RNA lipoplexes at 40° C. (capillary electrophoresis)", "details": "21 days, no cryoprotectant"}, "[2]": {"experiment": "RNA integrity in RNA lipoplexes, accelerated storage at 25° C.", "details": "10% sucrose, 6.45 mM NaCl, liposomes with 5 mM acetic acid", "procedure": "RNA lipoplexes are incubated under accelerated conditions (25° C.) in the presence of an exemplarily cryoprotectant. RNA integrity was analyzed by capillary electrophoresis over 60 days. Additionally, RNA lipoplexes are incubated under at the anticipated storage conditions (−15° C.) in the presence of an exemplarily cryoprotectant for up to two years. RNA integrity was analyzed by capillary electrophoresis.\nThe respective RNA lipoplexes were investigated under accelerated conditions (25° C.) and in the frozen state (−15° C.).\nRNA lipoplexes were formed with liposomes containing 2 mM of acetic acid. The respective RNA lipoplexes were investigated under accelerated conditions (25° C.) and in the frozen state (−15° C.).\nMethod: All RNA lipoplexes were automatically prepared in a single batch and the different concentrations of HEPES were adjusted by the addition of a cryoprotectant solution containing different amounts of HEPES. Particle sizes and polydispersity of RNA lipolexes were analyzed by photon correlation spectroscopy (PCS) measurements. Additionally, the RNA integrity was analyzed by capillary electrophoresis and the pH was measured. […]\nThe integrity of the RNA was analyzed using a 48 capillary Fragment Analyzer Automated System by Advanced Analytical (AATI) according to the manufacturers instructions. Results were analyzed via PROSize 2.0 version 2.0.051 data analysis software. […]"}},
  "data": [
    {"substance": "acetic acid/sodium acetate", "values": [
      {"measurement": "stabilization of the RNA (RNA integrity) by buffering system", "setting": "[1]", "result": "comparable results"},
      {"measurement": "stability of the RNA in RNA lipoplexes by buffer system", "setting": "[2]", "result": "lower stability"}
    ]}
  ]
}
